Test system: triple negative mBC
Settings: patients with advanced triple-negative breast cancer
Description: A Phase II, open-label, multicenter trial was conducted in Belgium and Germany. Two Cohorts of patients were included: • Cohort A: Patients with triple negative mBC • Cohort B: Patients with HER2-negative, HR-positive mBC. • Primary endpoint for Cohort A and B initially was objective response as determined by response evaluation criteria in solid tumours (RECIST) criteria, as described by P. Therasse et al., J Natl Cancer Inst 2000, 92, 205-216. For Cohort A this was modified by amendment to clinical benefit (CB), i.e. complete response (CR), partial response (PR) and stable disease (SD) for at least 4 courses. • Secondary endpoints were time to progression, progression-free survival (PFS), overall survival (OS), time to objective response, duration of objective response, safety and pharmacokintics (PK). Clinical benefit (CR, PR, SD) was a secondary endpoint for Cohort B. • A total of 80 patients was planned to be enrolled into the trial: 80, i.e. 40 patients per cohort. […] Additional predose plasma samples were taken on Day 15 of Course 1, on Day 1 of Course 2 and on Day 1 of all subsequent courses (Course 3 onwards). […]
• HR-negative patients: estrogen receptor (ER) status and progesterone receptor (PgR) status must be assessed by immunohistochemistry (IHC) and Allred (Harvey J M et al., J Clin Oncol 1999, 17(5), 1474-1481).

CN(C)C/C=C/C(=O)Nc1cc2c(Nc3ccc(F)c(Cl)c3)ncnc2cc1O[C@H]1CCOC1 [BIBW 2992, 4-[(3-chloro-4-fluorophenyl)amino]-6-{[4-(N,N-dimethylamino)-1-oxo-2-buten-1-yl]amino}-7-((S)-tetrahydrofuran-3-yloxy)-quinazo line]
antitumour activity: showed antitumour activity in some patients

From US20130012465A1 (Boehringer Ingelheim International GmbH, priority 2009, published 2013)
